Literature values in patent US9752110B2, “Method and compositions of preserving wine” (YSDR, LLC, priority 2008, dated 2017).

Test system: eNOS
Details: cited from earlier work

For `COc1cc(-c2[o+]c3cc(O)cc(O)c3cc2O)ccc1O` [paeodnidin], the “eNOS expression or eNOS promoter activity” value is given as “did not change”.
